Experimental data as given in US9138449B2, “Medicinal composition for liver diseases” (Shanghai Sundise Chinese Medicine Technology Development …, priority 2006, dated 2015).

Test system: liver fibrosis model in rat induced by CCl4
Assay: Prophylaxis action on liver fibrosis in rats induced by CCl4 with high lipid, low protein food
Format: in vivo
Details: CCl4 fibrotic rats; 6 weeks dosing; x ± s
Protocol: Pharmacological model: The liver fibrosis model in rat was induced by hypodermical injection of CCl4 and fed with the food containing high lipid and low protein. 100 wt % CCl4 was used at the first injection with a dosage of 1 ml/kg wt rat, then 40 wt % CCl4 in olive oil with a dosage of 3 ml/kg wt. was applied, twice per week and lasting for 2 weeks. During the first 2 weeks of intoxication, the rats were fed with the food containing 79.5 wt % maizena, 20 wt % grease and 0.5 wt % cholesterol, then with the pure maize food for later 4 weeks.
All dosages were 10 times human dosage with 65 kg by the same body weight.

Q: With Vitamin E [Vit E] as the substance, how does the “Serum Alb” value read?
A: 27.7 ± 1.1 g/L
